The assay has as its system fixed brain tissue suspension. In words: 1st delipidation assay: solubilization of fixed brain tissue suspension, turbidity at 600 nm. Also noted: species or system mice. Conditions: Table 1; 10 wt % chemical, fixed mouse brain suspension, 37° C. overnight; PBS = 1.000.

As to `CC(=O)O.CCCCCCCCCCCCN` [#0627, Dodecylamine acetate], the “1st delipidation assay Relative OD600” value is given as 0.329.

Regarding `CCCCCCCCC(=O)[O-].[Na+]` [#0865, Sodium nonanoate], the “1st delipidation assay Relative OD600” value amounted to 0.155.

For the molecule `CCCCCCCCCCCCCCCC[N+](C)(C)C.[Cl-]` [#1235, Hexadecyltrimethyl- ammonium chloride], the “1st delipidation assay Relative OD600” value amounted to 0.332.

Regarding `CCCCCCCCCCCC(=O)N(C)CC(=O)[O-].[Na+]` [#1466, Sodium N- lauroylsarcosinate], the “1st delipidation assay Relative OD600” value stood at 0.237.

Source of the values: patent US20220381657A1, “METHOD FOR PREPARING BIOLOGICAL MATERIAL HAVING EXCELLENT LIGHT-TRANSMITTING PROPERTY” (RIKEN, priority 2016, published 2022).
